Measured values: patent US5514694A, “Peptidyl ketoamides” (Georgia Tech Research Corp, priority 1993, dated 1996)

Molecular target: T1, cathepsin B (Homo sapiens, UniProt P07858)
T1 construct: purchased Sigma
Assay: Cathepsin B inhibition (KI)
Assay type: biochemical
Conditions: Table 3, M1 CO-Leu--AA--CONH-R; read-out: KI Cat B
Experimental: HEPES, heparin, and A23187 were obtained from Calbiochem. Suc-Leu-Tyr-AMC and chromogenic substrates were obtained from Sigma. Calpain I was purified from human erythrocytes according to the method of Kitahara (Kitahara et al., J. Biochem. 95, 1759-1766) omitting the Blue-Sepharose step. Calpain II from rabbit muscle and cathepsin B were purchased from Sigma. Papain was purchased from Calbiochem.
Peptide α-ketoamides were assayed as reversible enzyme inhibitors. Various concentrations of inhibitors in Me2 SO were added to the assay mixture which contained buffer and substrate. The reaction was started by the addition of the enzyme and the hydrolysis rates were followed spectrophotometrically or fluorimetrically.
Calpain I from human erythrocytes and calpain II from rabbit were assayed using Suc-Leu-Tyr-AMC Sasaki et al., J. Biol. Chem. 259, 12489-12494 (1984); incorporated herein by reference!, and the AMC (7-amino-4-methylcoumarin) release was followed fluorimetrically (excitation at 380 nm, and emmision at 460 nm). Calpains were assayed in 25 mM Tris pH=8.0, 10 mM CaC12. Fluorescence was followed using a Gilson FL-1A fluorometer or a Perkin-Elmer 203 Fluorescence spectrometer. […] Enzymatic hydrolysis rates were measured at various substrate and inhibitor concentrations, and KI values were determined by either Lineweaver-Burk plots or Dixon plots. […]

CCC(NC(=O)C(CC(C)C)NC(=O)C(c1ccccc1)c1ccccc1)C(=O)C(=O)NCc1ccccn1 (stereo not drawn) [Ph2 CH-CO-Leu-Abu-CONH-CH2 -2-pyridyl, Ph2 CHCO-Leu-Abu-CONH-2-CH2 -Pyridyl]
Ki: 2800 nM
